According to EP1903056A2, “HLA-A1, -A2 -A3, -A24, -B7, and -B44 tumor associated antigen peptides and compositions” (priority 2002, dated 2004):

Experiments:
B*4001(B60) = B*4001(B60) (Homo sapiens, UniProt P01889, A65T/A93T/A95T/D138N/D98Y/E176V/E69K/N87E/Q56L/Q94N/R180L/S121R/S35A/S48T/T167S/V36M/W171L/Y33H/Y91S); test: B44 supertype peptide binding, B*4001
B*4002 (B61) = B*4002 (B61) (Homo sapiens, UniProt P01889, A65T/A93T/A95T/D138N/D201E/D98Y/E176V/E204Q/E69K/K202T/N87E/Q56L/Q94N/R180L/S48T/Y33H/Y91S); test: B44 supertype peptide binding, B*4002
B*4403 = B*4403 (Homo sapiens, UniProt P01889, A223V/A65T/A93T/A95T/D201E/D98Y/E176V/E187L/E204Q/E69K/G107R/H137Y/K202T/L105A/L119I/N104T/N87E/Q56L/Q94N/R106L/R155S/R180L/S101N/S121R/S35A/S48T/T118I/V36M/W191S/Y140D/Y91S); test: B44 supertype peptide binding, B*4403
B*4501 = B*4501 (Homo sapiens, UniProt P01889, A329T/A65T/A93T/A95T/C349S/D138N/D201E/D98Y/E176V/E187L/E204Q/E69K/H137Y/K202T/L119W/N87E/Q56L/Q94N/R155S/R180D/S121R/S35A/S48T/V127L/V306I/V36M/W191S/Y140L/Y33H/Y91S); test: B44 supertype peptide binding, B*4501
B*4402 = B*4402 (Homo sapiens, UniProt P01889, A223V/A65T/A93T/A95T/D201E/D98Y/E176V/E187L/E204Q/E69K/G107R/H137Y/K202T/L105A/L119I/N104T/N87E/Q56L/Q94N/R106L/R155S/R180D/S101N/S121R/S35A/S48T/T118I/V36M/W191S/Y140D/Y91S); test: B44 supertype peptide binding, B*4402
[1] = CEA-derived B44 peptides, binding affinity, unit inferred, read-out: B* 4001
[2] = CEA-derived B44 peptides, binding affinity, unit inferred, read-out: B* 4002
[3] = CEA-derived B44 peptides, binding affinity, unit inferred, read-out: B* 4403
[4] = HER 2/neu-derived B44 peptides, Table 27, read-out: B* 4001
[5] = HER 2/neu-derived B44 peptides, Table 27, read-out: B* 4403
[6] = HER 2/neu-derived B44 peptides, Table 27, read-out: B* 4501
[7] = HER 2/neu-derived B44 peptides, Table 27, read-out: B* 4002
[8] = HER 2/neu-derived B44 peptides, Table 27, read-out: B* 4402

Q: `C[C@H](NC(=O)[C@H](CCC(=O)O)NC(=O)[C@@H]1CCCN1C(=O)[C@H](CCC(=O)O)NC(=O)[C@@H](N)CS)C(=O)N[C@@H](CCC(N)=O)C(=O)N[C@@H](CC(N)=O)C(=O)N[C@H](C(=O)N[C@H](C(=O)N[C@@H](Cc1ccc(O)cc1)C(=O)O)[C@@H](C)O)[C@@H](C)O` [compound 413] was tested. Which IC50 (B*4001(B60); [1]) did it give?
A: Its IC50 is greater than 10000 nM.

Q: What about the IC50 (B*4002 (B61); [2]) of the same molecule?
A: The IC50 was greater than 10000 nM.

Q: What about the IC50 (B*4403; [3]) of the same molecule?
A: Its IC50 is greater than 10000 nM.

Q: What does the source list for `CC(C)C[C@H](NC(=O)[C@H](Cc1ccc(O)cc1)NC(=O)[C@@H](NC(=O)[C@@H](NC(=O)[C@H](CC(N)=O)NC(=O)[C@H](CCC(N)=O)NC(=O)[C@H](C)NC(=O)[C@H](CCC(=O)O)NC(=O)[C@@H]1CCCN1)[C@@H](C)O)[C@@H](C)O)C(=O)N[C@@H](Cc1c[nH]c2ccccc12)C(=O)O` [compound 415]?
A: IC50 (B*4001(B60); [1]): > 10000 nM; IC50 (B*4002 (B61); [2]): > 10000 nM; IC50 (B*4403; [3]): > 10000 nM; IC50 (B*4501; CEA-derived B44 peptides, binding affinity, unit inferred, read-out: B* 4501): > 10000 nM

Q: With `CC(C)[C@H](NC(=O)[C@H](CS)NC(=O)[C@H](CO)NC(=O)[C@H](C)NC(=O)CNC(=O)[C@H](Cc1ccccc1)NC(=O)[C@@H](NC(=O)[C@H](Cc1ccc(O)cc1)NC(=O)[C@H](CCCNC(=N)N)NC(=O)CNC(=O)[C@H](CCC(=O)O)NC(=O)[C@@H]1CCCN1)[C@@H](C)O)C(=O)O` [compound 480] as the molecule, how does the IC50 (B*4403) read?
A: The IC50 was 348 nM.

Q: What about the IC50 (B*4501) of the same molecule?
A: The IC50 was 356 nM.

Q: How did the IC50 (B*4001(B60); [4]) turn out when `CSCC[C@H](NC(=O)[C@@H](NC(=O)[C@H](Cc1ccc(O)cc1)NC(=O)[C@H](C)NC(=O)[C@H](CCC(=O)O)NC(=O)[C@@H](N)CC(=O)O)C(C)C)C(=O)N[C@@H](C)C(=O)NCC(=O)N[C@H](C(=O)NCC(=O)O)C(C)C` [compound 491] was run?
A: The IC50 was 203 nM.

Q: What about the IC50 (B*4403; [5]) of the same molecule?
A: The IC50 was 5610 nM.

Q: And the IC50 (B*4501; [6])?
A: The IC50 was 218 nM.

Q: Which IC50 (B*4001(B60); [4]) does the source give for `CC(C)C[C@H](NC(=O)[C@@H]1CCCN1C(=O)[C@H](CO)NC(=O)[C@H](CCCNC(=N)N)NC(=O)[C@@H]1CCCN1C(=O)[C@H](C)NC(=O)[C@H](CCC(=O)O)NC(=O)[C@@H](N)CCC(=O)O)C(=O)N[C@@H](C)C(=O)O` [compound 499] here?
A: The IC50 was 10700 nM.

Q: What about the IC50 (B*4403; [5]) of the same molecule?
A: The IC50 was 294 nM.

Q: How did the IC50 (B*4002 (B61); [7]) turn out when `CSCC[C@H](NC(=O)[C@@H](NC(=O)[C@H](Cc1ccc(O)cc1)NC(=O)[C@H](C)NC(=O)[C@H](CCC(=O)O)NC(=O)[C@@H](N)CC(=O)O)C(C)C)C(=O)N[C@@H](C)C(=O)NCC(=O)N[C@H](C(=O)O)C(C)C` [compound 517] was run?
A: Its IC50 is 1240 nM.

Q: What about the IC50 (B*4402; [8]) of the same molecule?
A: The IC50 was 8010 nM.

Q: And the IC50 (B*4403; [5])?
A: Its IC50 is 138 nM.

Q: And the IC50 (B*4501; [6])?
A: The IC50 was 161 nM.

Q: How did the IC50 (B*4001(B60); [4]) turn out when `CSCC[C@H](NC(=O)[C@H](CC(C)C)NC(=O)[C@H](CCC(=O)O)NC(=O)[C@@H](N)Cc1c[nH]c2ccccc12)C(=O)N[C@H](C(=O)N[C@@H](Cc1ccccc1)C(=O)NCC(=O)N[C@@H](C)C(=O)N[C@@H](CCCCN)C(=O)N1CCC[C@H]1C(=O)N[C@@H](Cc1ccc(O)cc1)C(=O)O)[C@@H](C)O` [compound 519] was run?
A: The IC50 was 509 nM.

Q: And the IC50 (B*4002 (B61); [7])?
A: The IC50 was 778 nM.

Q: What about the IC50 (B*4402; [8]) of the same molecule?
A: Its IC50 is 24 nM.

Q: And the IC50 (B*4403; [5])?
A: The IC50 was 75 nM.

Q: For `CC[C@H](C)[C@H](NC(=O)[C@@H]1CCCN1C(=O)[C@H](CS)NC(=O)[C@@H]1CCCN1C(=O)[C@H](CCC(N)=O)NC(=O)[C@H](CS)NC(=O)[C@H](C)NC(=O)CNC(=O)[C@H](CCC(=O)O)NC(=O)[C@H](CCC(=O)O)NC(=O)[C@@H](N)CC(=O)O)C(=O)O` [compound 528], which IC50 (B*4001(B60)) is on record?
A: The IC50 was 5520 nM.

Q: What about the IC50 (B*4002 (B61)) of the same molecule?
A: The IC50 was 7290 nM.

Q: What about the IC50 (B*4402) of the same molecule?
A: The IC50 was 968 nM.

Q: What about the IC50 (B*4403) of the same molecule?
A: The IC50 was 438 nM.

Q: And the IC50 (B*4501)?
A: Its IC50 is 1320 nM.

Q: How did the IC50 (B*4403; [5]) turn out when `CC(C)C[C@H](NC(=O)[C@@H](NC(=O)[C@H](CCCCN)NC(=O)[C@@H](NC(=O)[C@H](CCCCN)NC(=O)[C@H](CCCNC(=N)N)NC(=O)[C@H](CC(C)C)NC(=O)[C@H](CCC(=O)O)NC(=O)[C@@H](N)[C@@H](C)O)C(C)C)C(C)C)C(=O)O` [compound 532] was run?
A: The IC50 was 2.5 nM.

Like-named read-outs stand apart in the source and are kept apart here.
